From US7531573B2 (priority 1994, dated 2009)

Chains of the proteins cited; added tags and fusions are not shown.
UniProt O15554, whole entry: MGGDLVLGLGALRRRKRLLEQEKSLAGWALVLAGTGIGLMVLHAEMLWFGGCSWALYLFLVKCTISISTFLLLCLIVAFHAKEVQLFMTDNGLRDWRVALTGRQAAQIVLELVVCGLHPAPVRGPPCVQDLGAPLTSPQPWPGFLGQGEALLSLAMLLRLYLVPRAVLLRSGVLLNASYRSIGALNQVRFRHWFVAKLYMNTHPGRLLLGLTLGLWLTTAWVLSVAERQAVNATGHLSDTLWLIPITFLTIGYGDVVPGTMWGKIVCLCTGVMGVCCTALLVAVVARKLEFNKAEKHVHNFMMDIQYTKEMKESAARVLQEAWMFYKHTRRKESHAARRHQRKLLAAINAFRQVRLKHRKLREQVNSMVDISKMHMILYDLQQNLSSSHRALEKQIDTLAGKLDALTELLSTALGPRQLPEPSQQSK

Assays:
[1] = tested on: NIH 3T3 mouse fibroblast cells; experiment: Mitogen-induced cell proliferation; format: cell-based
[2] = target: Gardos channel of erythrocytes (Homo sapiens, UniProt O15554)

**Q.** Which “Mitogen-induced cell proliferation % Inhibition” value ([1]; measured at 10 μM) does the source give for `CON(C)C(=O)CC(c1ccccc1)(c1ccccc1)c1ccccc1Cl` here?
**A.** 92.0%

**Q.** And the IC50 ([1]; read-out: Mitogen-induced cell proliferation IC50)?
**A.** 1200 nM

**Q.** What about the “Gardos Channel % Inhibition” value ([2]; measured at 10 μM) of the same molecule?
**A.** 99.6%

**Q.** And the IC50 ([2]; read-out: Gardos Channel IC50)?
**A.** 459 nM
